Test results taken from US9127005B2, “Isoform selective phospholipase D inhibitors” (Vanderbilt University, priority 2009, dated 2015).
pIC50: −log10 of the molar value.

The chains behind the UniProt entries cited, without tags or fusion partners. Where a name states a change or a piece, a line headed by the entry shows the natural chain unless it says otherwise.
UniProt Q13393: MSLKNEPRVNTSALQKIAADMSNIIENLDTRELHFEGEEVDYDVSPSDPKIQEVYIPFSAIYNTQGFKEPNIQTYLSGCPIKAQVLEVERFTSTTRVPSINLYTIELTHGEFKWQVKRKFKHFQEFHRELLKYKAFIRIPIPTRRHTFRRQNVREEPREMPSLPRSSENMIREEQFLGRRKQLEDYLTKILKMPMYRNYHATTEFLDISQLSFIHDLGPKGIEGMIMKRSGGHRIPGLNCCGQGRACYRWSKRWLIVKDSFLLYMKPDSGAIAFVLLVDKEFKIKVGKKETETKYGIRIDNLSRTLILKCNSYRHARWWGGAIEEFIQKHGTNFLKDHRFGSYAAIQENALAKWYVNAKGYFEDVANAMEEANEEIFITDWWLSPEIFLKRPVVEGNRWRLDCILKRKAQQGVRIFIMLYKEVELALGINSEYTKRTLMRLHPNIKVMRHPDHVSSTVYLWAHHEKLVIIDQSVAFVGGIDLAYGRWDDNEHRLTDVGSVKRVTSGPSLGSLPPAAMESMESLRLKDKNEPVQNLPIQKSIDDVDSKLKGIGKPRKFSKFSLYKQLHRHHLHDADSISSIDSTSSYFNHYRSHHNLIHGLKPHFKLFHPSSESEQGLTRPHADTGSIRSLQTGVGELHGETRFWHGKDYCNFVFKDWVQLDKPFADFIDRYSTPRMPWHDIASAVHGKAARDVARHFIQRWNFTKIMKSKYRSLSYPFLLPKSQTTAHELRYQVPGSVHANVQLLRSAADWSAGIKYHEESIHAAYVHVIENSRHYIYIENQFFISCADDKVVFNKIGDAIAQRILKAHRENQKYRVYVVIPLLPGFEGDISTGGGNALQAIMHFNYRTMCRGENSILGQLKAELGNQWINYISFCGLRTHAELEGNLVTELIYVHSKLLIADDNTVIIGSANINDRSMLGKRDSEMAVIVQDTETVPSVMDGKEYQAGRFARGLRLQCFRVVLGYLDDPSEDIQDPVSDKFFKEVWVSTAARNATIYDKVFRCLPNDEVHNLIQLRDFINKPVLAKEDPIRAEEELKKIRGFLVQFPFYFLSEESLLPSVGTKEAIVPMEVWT
UniProt O14939: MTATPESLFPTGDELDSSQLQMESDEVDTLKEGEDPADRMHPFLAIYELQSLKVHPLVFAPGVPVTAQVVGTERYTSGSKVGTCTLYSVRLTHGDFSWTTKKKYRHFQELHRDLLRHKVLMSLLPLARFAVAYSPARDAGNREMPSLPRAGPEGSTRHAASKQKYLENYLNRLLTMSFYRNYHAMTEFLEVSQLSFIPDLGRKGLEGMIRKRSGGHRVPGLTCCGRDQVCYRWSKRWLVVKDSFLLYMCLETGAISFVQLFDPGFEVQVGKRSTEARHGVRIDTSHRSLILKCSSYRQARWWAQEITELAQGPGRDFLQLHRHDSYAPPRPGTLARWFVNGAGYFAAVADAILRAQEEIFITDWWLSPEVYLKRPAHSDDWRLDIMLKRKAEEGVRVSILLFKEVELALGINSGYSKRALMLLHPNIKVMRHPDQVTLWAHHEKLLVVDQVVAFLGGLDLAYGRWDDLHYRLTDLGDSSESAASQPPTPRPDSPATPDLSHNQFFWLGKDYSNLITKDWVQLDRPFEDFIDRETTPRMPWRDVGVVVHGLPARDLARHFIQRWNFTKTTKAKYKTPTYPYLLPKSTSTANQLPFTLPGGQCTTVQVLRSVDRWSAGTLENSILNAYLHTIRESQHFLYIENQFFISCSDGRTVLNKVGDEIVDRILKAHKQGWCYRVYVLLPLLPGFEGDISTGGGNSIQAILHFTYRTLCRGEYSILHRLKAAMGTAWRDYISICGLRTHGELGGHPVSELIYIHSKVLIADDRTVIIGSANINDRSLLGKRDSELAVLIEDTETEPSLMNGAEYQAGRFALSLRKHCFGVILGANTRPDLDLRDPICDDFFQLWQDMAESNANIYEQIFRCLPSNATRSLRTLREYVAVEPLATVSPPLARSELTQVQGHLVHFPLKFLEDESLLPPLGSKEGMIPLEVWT

What was measured:
PLD1 [1] = target: T1, PLD1 (Homo sapiens (Human), UniProt Q13393); experiment: Cellular CRCs: PLD1 response in Calu-1 cells; type: cell-based
From the text: (§1) The screening method can comprise providing a cell selectively expressing a PLD isoenzyme, comprising a phosholipid, contacting the cell with a candidate agent in the presence of a primary alcohol, measuring the levels of phosphatidylalcohol in the cell, comparing the phosphatidylalcohol levels to a control, a decrease in phosphatidylalcohol levels compared to the control identifying an agent that inhibits the PLD isoenzyme.
In some aspects PLD activity in the cell is mediated predominately by PLD1. Thus, in some aspects, the cell is the human non-small-cell lung cancer (NSCLC) cell line Calu-1. In some aspects, the cell has been stimulated to activate PLD1 in the cell. For example, the cell can be stimulated with phorbol 12-myristate 13-acetate (PMA).

PLD1 [2] = target: T1, PLD1; experiment: Exogenous CRCs: in vitro PLD1 response; type: biochemical
From the text: (§2) Generally, the screening method can comprise providing a sample comprising a phosholipid, a primary alcohol, and a PLD under conditions that allow the hydrolysis of the phospholipids to a phosphatidylalcohol, contacting the sample with a candidate agent, measuring enzymatic activity, comparing the enzymatic activity to a control, a decrease in enzymatic activity compared to the control identifying an agent that inhibits the PLD.
as §2, with “The” for “Generally, the”, “phosholipid” for “phosholipid, a primary alcohol,”, “phosphatidic acid,” for “phosphatidylalcohol,”
(§3) In some aspects, the PLD is a myr-Aff-1-stimulated mammalian human PLD1 or human PLD2.

PLD2 [3] = target: T2, PLD2 (Homo sapiens (Human), UniProt O14939); experiment: Cellular CRCs: PLD2 response in HEK293gfpPLD2 (293-PLD2) cells; type: cell-based
From the text: as §1
In some aspects PLD activity in the cell is mediated predominately by PLD2. Thus, in some aspects, the cell stably overexpresses recombinant PLD2. For example, the cell can be a HEK293 cell stably overexpressing green florescent protein (GFP)-tagged PLD2.

PLD2 [4] = target: T2, PLD2; experiment: Exogenous CRCs: in vitro PLD2 response; type: biochemical
From the text: as §2, with “The” for “Generally, the”, “phosholipid” for “phosholipid, a primary alcohol,”, “phosphatidic acid,” for “phosphatidylalcohol,”
as §3

[5] = Calu-1 cells (PLD1), read-out: Cellular CRCs Calu-1 IC50
[6] = exogenous (in vitro) PLD2, read-out: Exogenous CRCs PLD2 IC50

Row | Structure (SMILES) | pIC50 (PLD1 [1]) | pIC50 (PLD1 [2]) | pIC50 (PLD2 [3]) | pIC50 (PLD1 [1]; [5]) | pIC50 (PLD2 [4]; [6]) | Fold Selective (PLD2 [3]; cellular CRCs, selectivity for PLD2 (293-PLD2) over PLD1 (Calu-1)) | pIC50 (PLD2 [4]) | pIC50 (PLD2 [3]; HEK293 cells overexpressing GFP-tagged PLD2, read-out: Cellular CRCs 293-PLD2 IC50)
1 | O=C(NCCN1CCC2(CC1)C(=O)NC[C@@H]2c1ccc(F)cc1)c1cnc2ccccc2c1 [P1P, (R)-N-(2-(4-(4-fluorophenyl)-1-oxo 2,8-diazaspiro[4.5]decan-8-yl)ethyl)quinoline-3-carboxamide bis(2,2,2-trifluoroacetate)] | 5.87 | < 4.70 | 7.22 | – | – | – | – | –
2 | O=C(NCCN1CCC2(CC1)C(=O)NC[C@H]2c1ccc(F)cc1)c1ccc(F)cc1.O=C(O)C(F)(F)F [P2C, (S)-4-fluoro-N-(2-(4-(4-fluorophenyl)-1-oxo-2,8-diazaspiro[4.5]decan-8-yl)ethyl)benzamide 2,2,2-trifluoroacetate] | – | < 4.70 | 5.50 | < 4.70 | < 4.70 | ~10-fold? | – | –
3 | O=C(NCCN1CCC2(CC1)C(O)=NC[C@H]2c1ccc(F)cc1)c1cnc2ccccc2c1 [NFT, (S)-N-(2-(4-(4-fluorophenyl)-1-oxo-2,8-diazaspiro[4.5]decan-8-yl)ethyl)quinoline-3-carboxamide bis(2,2,2-trifluoroacetate)] | 4.92 | < 4.70 | 6.35 | – | – | – | – | –
4 | O=C(NCCN1CCC2(CC1)C(=O)NCC2c1ccc(F)cc1)c1cnc2ccccc2c1 (racemic) [CTH] | – | – | – | 5.62 | – | – | 6.35 | 6.84
5 | C[C@@H](CN1CCC2(CC1)C(=O)NC[C@@H]2c1ccc(F)cc1)NC(=O)c1cnc2ccccc2c1 [P0L, N-((S)-1-((R)-4-(4-fluorophenyl)-1-oxo 2,8-diazaspiro[4.5]decan-8-yl)propan-2-yl)quinoline-3-carboxamide bis(2,2,2-trifluoroacetate)] | 7.60 | 7.00 | 6.94 | – | – | – | 6.14 | –
6 | O=C(NCCN1CCC2(CC1)C(=O)NC[C@@H]2c1ccc(F)cc1)c1ccc(F)cc1.O=C(O)C(F)(F)F [NFW, (R)-4-fluoro-N-(2-(4-(4-fluorophenyl)-1-oxo-2,8-diazaspiro[4.5]decan-8-yl)ethyl)benzamide 2,2,2-trifluoroacetate] | 5.26 | 4.96 | 6.66 | – | – | – | – | –
7 | C[C@@H](CN1CCC2(CC1)C(=O)NC[C@H]2c1ccc(F)cc1)NC(=O)c1cnc2ccccc2c1 [P2E, N-((S)-1-((S)-4-(4-fluorophenyl)-1-oxo-2,8-diazaspiro[4.5]decan-8-yl)propan-2-yl)quinoline-3-carboxamide bis(2,2,2-trifluoroacetate)] | 6.70 | – | 6.15 | – | 5.17 | – | – | –
